Assay results as given in patent US6713250B1, “Identification of human allergens and T-lymphocyte antigens in vitro” (The Research Foundation of State University of New York, priority 1997, dated 2004).

System: human naive T-cells (PBMC)
Assay: Primary in vitro sensitization culture of PBMC with or without mitomycin C treated T2 cells, 3H-thymidine uptake
Type: cell-based
Description: Preparation of peripheral blood mononuclear cells (PBMC). The research protocol was approved by the Committee on Research Involving Human Subjects of SUNY @ Stony Brook. After informed consent, heparinized blood was obtained by venipuncture. PBMC (peripheral blood mononuclear cells, which include lymphocytes and macrophages/monocytes) were prepared from heparinized peripheral blood by density centrifugation over Ficoll/Hypaque (Pharmacia, Piscataway, N.J.). PBMC were then washed 3 times in serum free wash medium consisting of SMEM (Gibco, Grand Island, N.Y.), and mixed (1:1) with AIM V medium (Gibco). At no time did the PBMC contact animal serum. PBMC were counted, and resuspended at 2×10^6 cells/ml in AIM V medium (Gibco).
Preparation and mitomycin C treatment of T2 cells. T2 cells were cultured in AIM V media (Gibco). Prior to treatment, they were washed, counted, and resuspended in AIM V media at 2×10^6 cells/ml. Mitomycin C (Sigma, St Louis, Mo.) was then added at 30 μg/ml for a 2 hour incubation at 37° C. The T2 cells were then washed 4 times in serum free wash media, counted with trypan blue dye exclusion, and resuspended at 1×10^6 cells/ml.
In vitro sensitization cultures. […] The wells were harvested 18 hours later, and ^3H-thymidine uptake was determined with a scintillation counter (Pharmacia LKB Nuclear, Gaithersburg, Md.).

SMILES: COc1cc(C=O)ccc1O [vanillin]
- donor PBMC that responded, FIG. 2 (PBMC from 4 donors, 6 days with mitomycin C treated T2 cells, each compound 3.3 μM to 60 μM): none
- response of PBMC, FIG. 4 (PBMC incubated 6 days with mitomycin C treated T2 cells): negative response
